Test results: paper PMC4380750 (Bioorganic & medicinal chemistry, 2015)

Amino acid sequences for entries named in this document (tags omitted).
UniProt P42866, whole entry: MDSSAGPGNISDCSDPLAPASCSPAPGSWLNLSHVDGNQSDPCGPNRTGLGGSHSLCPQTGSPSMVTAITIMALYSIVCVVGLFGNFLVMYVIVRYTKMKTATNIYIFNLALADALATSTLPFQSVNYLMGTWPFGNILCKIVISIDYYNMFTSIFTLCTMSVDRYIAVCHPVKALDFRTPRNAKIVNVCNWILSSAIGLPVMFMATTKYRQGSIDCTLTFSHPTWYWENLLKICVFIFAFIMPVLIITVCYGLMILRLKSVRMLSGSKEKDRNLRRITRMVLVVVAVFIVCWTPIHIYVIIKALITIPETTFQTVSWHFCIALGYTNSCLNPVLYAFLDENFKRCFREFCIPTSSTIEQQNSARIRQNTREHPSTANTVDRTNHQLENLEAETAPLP

Biological target: MOR (Mus musculus, UniProt P42866)
Assay: biochemical
Details: read-out: MOR [35S]GTPγS Binding %Emax of DAMGO

Structure (SMILES): O=C(N[C@H]1CC[C@@]2(O)[C@H]3Cc4ccc(O)c5c4[C@@]2(CCN3CC2CC2)[C@H]1O5)c1cc2ccccc2c(Cl)n1 [Compound 8, 17-Cyclopropylmethyl-3,14β-dihydroxy-4,5α-epoxy-6α-(1-chloroisoquinoline-3-carboxamido)morphinan]
- Emax: 26.4 ± 0.9%
